## Binding of CDR-mutated scFvs to a peptide of the spike HR2 region

Source: Engelhart et al. 2022 (doi:10.1038/s41597-022-01779-4), MIT Lincoln Laboratory and A-Alpha Bio; data file from the FLAb repository.

The target is the same throughout: PDVDLGDISGINAS, from the HR2 region of SARS-CoV-2 spike.

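The starting antibody came from a phage panning campaign against this peptide. The library (AAYL51) carries one to three amino acid substitutions per variant, with no insertions or deletions. The scFvs were displayed on barcoded MATa yeast, the peptide on MATalpha yeast. Binding brings cells together so that they mate, and sequencing counts the barcode pairs among the diploids. Read counts were normalised to the haploid input and turned into Kd by a linear fit to BCL2-family pairs of known affinity, for each replicate. Each pool was mated in three replicate cultures.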

Each scFv is VL, a (GGGGS)3 linker, VH, as in the parent Ab-91, and differs from it in the CDRs of the heavy chain only.
VL: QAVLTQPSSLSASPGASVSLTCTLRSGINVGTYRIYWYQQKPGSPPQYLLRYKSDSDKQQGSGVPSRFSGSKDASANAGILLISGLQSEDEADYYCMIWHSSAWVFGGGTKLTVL
VH: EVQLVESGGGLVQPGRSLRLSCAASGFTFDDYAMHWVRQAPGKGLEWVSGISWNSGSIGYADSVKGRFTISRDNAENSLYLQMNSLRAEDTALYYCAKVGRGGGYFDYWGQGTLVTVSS

Substitutions are numbered in sequence along the VH above, starting at 1 (not Kabat). Numbers give log10(Kd / nM), so 0 is 1 nM and 3 is 1 µM. Smaller is tighter. Replicates are averaged; those with no signal do not enter the mean. "nd" marks a missing value. The strain was present, yet no cells mated with the target were sequenced in that replicate, which points to weak or no binding. Three control strains display no target. For library AAYL51, 21% of the pairings with them gave a signal, with a median of 4.54 and one signal in twenty below 3.26, so weak values seen in few replicates may be background. Also given: how often the same scFv was detected with the empty control strains.

H35Q+S55I+D107L: nd, 3.82, nd (controls 1 of 9).
M34H+Y60C+Y108P: nd, 5.54, nd (controls 0 of 9).
W53S+N54M+V64N: 5.38, 4.34, 4.56 (mean 4.76; controls 3 of 9).
S52Q+R101W+D107N: nd, nd, nd (controls 1 of 9).
Y32S+A33H+G56T: 3.47, nd, nd (controls 1 of 9).
W53T+N54H+G103W: 5.83, nd, nd (controls 1 of 9).
D31M+W53R+V64S: nd, 4.66, nd (controls 1 of 9).
G26A+S57F+G104L: nd, nd, 4.56 (controls 2 of 9).
F29K+Y32F+Y105C: 5.34, nd, nd (controls 2 of 9).
Y32D+S52D+I58F: nd, nd, nd (controls 2 of 9).
I58W+G100R+G103M: nd, nd, nd (controls 1 of 9).
M34P+H35T+Y60G: nd, nd, nd (controls 0 of 9).
G26D+G50Q+G102N: nd, 6.46, nd (controls 2 of 9).
S57E+I58W+A61M: 1.31, 1.46, 1.05 (mean 1.27; controls 4 of 9).
H35K+S57Y+S63M: 4.24, 5.89, nd (mean 5.07; controls 3 of 9).
T28K+N54D+Y105N: 2.40, 2.42, 1.61 (mean 2.14; controls 3 of 9).
W53F+I58V+G59P: nd, nd, nd (controls 2 of 9).
T28G+K65F+G104V: 3.88, 4.38, 4.92 (mean 4.39; controls 5 of 9).
D62M+G100S+G104A: 3.82, 3.66, nd (mean 3.74; controls 3 of 9).
Y32A+G103H+Y108M: 2.03, 2.08, 3.13 (mean 2.41; controls 0 of 9).
M34G+Y105V: nd, nd, nd (controls 0 of 9).
D31E+I51S+G103F: nd, nd, nd (controls 0 of 9).
N54W+Y60M+K65G: 4.53, 5.02, 3.83 (mean 4.46; controls 4 of 9).
F29T+M34E+H35A: nd, nd, nd (controls 2 of 9).
G50L+I51W+S55G: nd, nd, nd (controls 2 of 9).
S52L+S55I+S63N: 3.56, 4.58, nd (mean 4.07; controls 1 of 9).
F27S+R101A+Y108P: nd, nd, 3.13 (controls 1 of 9).
D30A+R101T: 1.62, 1.78, 1.12 (mean 1.51; controls 2 of 9).
D30C+H35L+G102I: nd, nd, nd (controls 1 of 9).
G26D+A61V+K65S: nd, nd, nd (controls 0 of 9).
A61Q+D62Y+S63V: nd, 3.80, nd (controls 0 of 9).
H35T+A61Q+D107W: 3.82, 4.57, nd (mean 4.19; controls 3 of 9).
G50R+W53K+Y60W: nd, nd, nd (controls 0 of 9).
G26P+S57T+K65L: 3.54, 5.04, 4.64 (mean 4.40; controls 5 of 9).
D31S+Y32I+D107H: 5.28, 4.80, nd (mean 5.04; controls 5 of 9).
D31L+V64G+G103C: 2.96, 3.61, 3.36 (mean 3.31; controls 6 of 9).
I51A+G104W+Y105R: nd, nd, nd (controls 0 of 9).
Y32K+H35E+G102N: nd, nd, 3.71 (controls 3 of 9).
F27A+G50V+Y60N: nd, nd, nd (controls 1 of 9).
A61Y+V64R: nd, nd, nd (controls 0 of 9).
G50F+S57T+I58G: nd, nd, 3.73 (controls 3 of 9).
D62T+G100N+D107K: 2.12, 2.17, 2.15 (mean 2.15; controls 2 of 9).
I58P+V99A: 2.54, 3.79, nd (mean 3.17; controls 0 of 9).

A selection of 4 entries from above:

{"changes": "G50F+S57T+I58G", "log10 Kd (nM) by replicate": "nd, nd, 3.73", "log10 Kd (nM), mean": "3.73", "signal with controls": "3/9"}
{"changes": "H35K+S57Y+S63M", "log10 Kd (nM) by replicate": "4.24, 5.89, nd", "log10 Kd (nM), mean": "5.07", "signal with controls": "3/9"}
{"changes": "W53T+N54H+G103W", "log10 Kd (nM) by replicate": "5.83, nd, nd", "log10 Kd (nM), mean": "5.83", "signal with controls": "1/9"}
{"changes": "D30C+H35L+G102I", "log10 Kd (nM) by replicate": "nd, nd, nd", "log10 Kd (nM), mean": "nd", "signal with controls": "1/9"}